# From patent US4485113A (priority 1979, dated 1984)
# Tested on: rat
# Assay: peroral toxicity to mammals (A.O. Rat)
# Conditions: for A.O. Rat. (peroral LD50): Table II; for A.O. Rat. LD50: comparison test, Table III
Compound,A.O. Rat. (peroral LD50) [mg/kg],A.O. Rat. LD50 [mg/kg]
CSC(C)(C)C=NOC(=O)N(C)SC(C)(CCl)CCl,2.5,–
CN(SC(C)(C)CCl)C(=O)ON=C1CSCCS1,24.,–
CN(SC(C)(CCl)CCl)C(=O)ON=C1CSCCS1,43,–
CN(SC(C)(C#N)CCl)C(=O)ON=C1CSCCS1 (stereo not drawn),40,–
CSC(C)=NOC(=O)N(C)SC(C)(C)CCl,104,104
CN(SC(C)(CCl)CCl)C(=O)ON=C1SC(C)(C)C(=O)N1C,343,–
CC(=NOC(=O)N(C)SC(C)(CCl)CCl)SC(C)C,174,174
